Target: wild-type E. coli DNA gyrase (Escherichia coli, UniProt P0AES4+P0AES6)
Test: biochemical
Experimental: Supercoiling reactions were carried out as described previously ([24]) with minor adjustments. A total of 500 ng of relaxed pBR322 plasmid was used as a substrate for each 30 μl reaction. The amount of DNA gyrase (A2B2) added was normalized by testing various dilutions of the stock (A2B2 containing 0.5 mg/ml of each subunit) without compound. The amount sufficient to supercoil 50% of the substrate was then used for the testing of compounds. See Supplementary Figure S1 for details. This ensured a limiting amount of enzyme for every mutant tested. The individual gyrase subunits were either prepared in the lab as described previously ([25]) or purchased from Inspiralis.

By UniProt entry, the sequences of proteins in these tests, tags left out.
UniProt P0AES4, whole entry: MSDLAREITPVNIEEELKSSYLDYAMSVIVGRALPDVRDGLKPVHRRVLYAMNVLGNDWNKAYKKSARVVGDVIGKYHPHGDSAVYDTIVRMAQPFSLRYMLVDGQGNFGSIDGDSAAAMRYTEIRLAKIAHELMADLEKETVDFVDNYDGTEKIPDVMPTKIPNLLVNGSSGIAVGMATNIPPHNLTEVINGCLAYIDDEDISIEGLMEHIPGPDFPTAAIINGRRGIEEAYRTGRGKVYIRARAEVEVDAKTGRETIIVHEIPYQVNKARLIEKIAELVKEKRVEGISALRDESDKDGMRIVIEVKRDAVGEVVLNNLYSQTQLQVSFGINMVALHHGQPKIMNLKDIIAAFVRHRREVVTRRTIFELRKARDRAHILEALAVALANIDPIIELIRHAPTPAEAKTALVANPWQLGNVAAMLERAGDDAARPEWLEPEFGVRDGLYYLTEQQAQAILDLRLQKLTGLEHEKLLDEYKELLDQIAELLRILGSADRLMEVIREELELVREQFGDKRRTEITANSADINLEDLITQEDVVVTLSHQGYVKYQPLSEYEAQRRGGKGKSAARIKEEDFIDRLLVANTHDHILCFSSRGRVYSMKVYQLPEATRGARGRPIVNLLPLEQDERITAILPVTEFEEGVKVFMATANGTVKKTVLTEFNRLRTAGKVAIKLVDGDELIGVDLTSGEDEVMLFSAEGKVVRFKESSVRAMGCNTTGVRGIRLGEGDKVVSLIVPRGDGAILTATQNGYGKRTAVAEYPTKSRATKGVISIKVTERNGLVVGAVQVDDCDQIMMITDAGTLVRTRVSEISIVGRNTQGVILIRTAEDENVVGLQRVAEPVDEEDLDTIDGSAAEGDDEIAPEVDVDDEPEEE

## O=c1c2nccn2c2cc(F)c(-c3ccncc3)cc2n1C1CC1 [t3]
  IC50: 1600 nM

Source: PMC5934680, “A new class of antibacterials, the imidazopyrazinones, reveal structural transitions involved in DNA gyrase poisoning and mechanisms of resistance” (Nucleic Acids Research, 2018)
